scFv variants of Ab-14 (light chain) against a SARS-CoV-2 spike peptide

The target is the same throughout: PDVDLGDISGINAS, from the HR2 region of SARS-CoV-2 spike.

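The parent was found by panning a naive human phage display library on the peptide. These sequences belong to a second round, designed from the earlier measurements on random variants of the parent. Group labels follow the data file (Ctrl: baseline library sampled from a position-specific scoring matrix, with some repeated check sequences; Rand: our label for a block that the file lists under HC and that is probably the random mutants of the ten best first-round binders; En: ensemble of fine-tuned language models; GP: Gaussian process model; HC: hill climbing; Gen: genetic algorithm; Gibbs: Gibbs sampling; a sequence that several methods proposed may carry one label only). Affinity was read by AlphaSeq, a pooled yeast mating assay with surface-displayed partners. Mating (16 h, 30 °C) was followed by selection of diploids and sequencing of their barcodes. A regression on co-assayed BCL2-family reference pairs converts the normalised counts of each replicate to an apparent Kd. The assay was run in six technical replicates.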

Ab-14 is the parent antibody, in scFv form: VH, then the linker GGGGSGGGGSGGGGS, then VL. The heavy chain is unchanged in all variants.
VH: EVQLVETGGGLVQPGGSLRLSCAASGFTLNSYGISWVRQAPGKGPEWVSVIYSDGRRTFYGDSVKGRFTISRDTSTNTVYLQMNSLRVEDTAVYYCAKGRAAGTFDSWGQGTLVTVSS
VL: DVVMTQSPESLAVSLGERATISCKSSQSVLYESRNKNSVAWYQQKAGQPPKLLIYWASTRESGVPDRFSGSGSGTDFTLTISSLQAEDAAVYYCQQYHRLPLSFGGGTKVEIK

Each variant is given by its three light chain CDRs, as the data file delimits them; those of the parent are KSSQSVLYESRNKNSVA, WASTRES, QQYHRLPLS. Scale: log10 of Kd in nM, estimated from mating counts; low values are strong binders. The mean shown is taken over the replicates in which the pair was detected. "no signal" means that the variant was in the library but no mating with the target was seen in any replicate; the authors take this as a sign of poor binding, and no number exists. The authors' rule: three or more of the six replicates give a measured affinity, fewer mean a poor binder. Nonspecific signal, from three strains lacking the peptide, appeared in 4% of pairings of all light chain designs, centred on 2.64 (5% of these signals below 1.59); values are not corrected for it. Also given: how often the same scFv was detected with the empty control strains. Of ten entries with the parent sequence, four were seen in most replicates (averages 0.34 to 2.37), three in one and three in none, so single entries are noisy. A sequence measured in both rounds can read differently, since the two assays cover different ranges.

| log10 Kd (nM), mean | seen in | empty controls | CDR-L1 | CDR-L2 | CDR-L3 | group |
|---|---|---|---|---|---|---|
| 1.98 | 6 of 6 | 0 of 18 | KISQMVKVGATHNNSIA | EEVTRAK | QQYHRLPLA | En_Gen |
| 0.26 | 6 of 6 | 2 of 18 | KLQQSQLYESRNKNSVA | EASTRLS | QQYHRLPLS | GP_Gen |
| 1.69 | 5 of 6 | 0 of 18 | LLMQSVLYESRNKNSVA | HASLRED | QQYHRLPLS | GP_HC |
| -0.57 | 6 of 6 | 0 of 18 | KFSQSVLYESRNKNSVA | GGSTRES | QQYHRLPLS | GP_Gen |
| 0.18 | 6 of 6 | 0 of 18 | KQSQSVLFESRNKNSVA | EASTRES | QQYHRLPLS | GP_HC |
| -0.49 | 6 of 6 | 0 of 18 | KLSQSVLYESRNKNSVA | SASTRES | QQYHRLPLQ | Ctrl |
| 0.48 | 6 of 6 | 3 of 18 | KVSQEVLMGDRNKNSVA | KASTRLS | QQYHRLPLS | GP_Gibbs |
| 1.85 | 6 of 6 | 2 of 18 | KISDACQTDMGRMSAVA | DDDVAND | QQYARLPLA | En_Gibbs |
| no signal | 0 of 6 | 0 of 18 | KSSKSLLYESRNKNSVA | WASTRES | QQSHRLPLS | Ctrl |
| 0.13 | 6 of 6 | 2 of 18 | KSSQSEDYESRNKNSVA | NASTRES | QQYHRLPLS | GP_Gen |
| 0.43 | 6 of 6 | 1 of 18 | KSSFSYLYESRNKNSVA | EASTRES | QQYHRLPLS | GP_HC |
| 0.23 | 6 of 6 | 2 of 18 | TLSHSTDLELVHKNSIA | DLMTRES | QQYDRLPLS | En_HC |
| 0.21 | 6 of 6 | 0 of 18 | KSSQSFYYESRNKNSVA | GASTRES | QQYHRLPLS | GP_HC |
| 3.32 | 2 of 6 | 3 of 18 | MIHEMMGLMSHKQSSIA | DNSTRED | QQYDRLPLS | En_Gen |
| 1.03 | 6 of 6 | 0 of 18 | ALTAHRLVAIEQKNSIA | NAVMRYD | QQYAQLPLM | En_Gibbs |
| 0.23 | 6 of 6 | 0 of 18 | HVKEDLNMGMKFQSSVA | SGAHRED | QQYYRLPLG | En_Gibbs |
| 0.33 | 6 of 6 | 0 of 18 | KLQTSWLYEKRNKNSVA | QASQRES | QQYHRLPLS | GP_Gibbs |
| 0.65 | 6 of 6 | 2 of 18 | TIGQMFNGESRARNSVA | QASTRES | QSYDRLPLS | En_HC |
| 1.96 | 4 of 6 | 1 of 18 | TIGSTLMYGMRNRSNVA | EVSERLN | QQYDRLPLL | En_Gen |
| 0.50 | 6 of 6 | 2 of 18 | KLPNSTLYESRQKNSVA | NASTRLS | QQYHRLPLS | GP_HC |
| no signal | 0 of 6 | 0 of 18 | KSSQSVLYEGRNVNPVA | WASTRES | QQYHILPLS | Ctrl |
| 0.37 | 6 of 6 | 4 of 18 | QSEQSVLYPSRNENSVA | NASTRES | QQYHRLPLS | Ctrl |
| 2.15 | 5 of 6 | 0 of 18 | QISMNLEIYDQEQWAVA | MGEMRTE | QQYHKLPLS | En_Gibbs |
| 1.75 | 1 of 6 | 1 of 18 | KSSQKVLKESRNKNSVA | WCSTRES | QQYHRLPLS | Ctrl |
| no signal | 0 of 6 | 0 of 18 | KSSTSVLYESRLKNSVA | WASTRES | QQYHRLPLS | Ctrl |
| 0.90 | 6 of 6 | 1 of 18 | KSSQSELDESRNPNSVA | WASTRES | QQYHRLPLS | Ctrl |
| 1.53 | 6 of 6 | 0 of 18 | NLKENNVDNQTFYSNIA | HADQREK | QQYYRLPLQ | En_Gibbs |
| 0.65 | 6 of 6 | 0 of 18 | HISQMVMYGSCNVNNVA | QVSTREE | QQYHRLPLS | En_HC |
| -0.35 | 6 of 6 | 2 of 18 | KVSQSQLYESRNKNNVA | EASTRES | QQYHRLPLS | GP_Gen |
| -0.07 | 6 of 6 | 1 of 18 | KLMQSAWLESRNFNNVA | QASQREL | QQYHRLPLS | GP_Gibbs |
| -0.04 | 6 of 6 | 1 of 18 | KLSQSVPYESRNKNSVA | NASYRES | QQYHRLPLS | GP_Gen |
| no signal | 0 of 6 | 0 of 18 | MISQILNMGSFAINSVA | QASLRNE | QQYDRLPLA | En_Gen |
| no signal | 0 of 6 | 0 of 18 | KYSQSVLEESRNKNSVA | WASTRES | QQYHHLPLS | Ctrl |
| 0.96 | 6 of 6 | 1 of 18 | AVSIQQMENTAIWNAIA | DTSLRAH | QQYYHLPLC | En_Gibbs |
| 0.66 | 6 of 6 | 1 of 18 | KLSQSVLYPSRNKNSVA | WASTRED | QQYHRLPLS | Ctrl |
| 1.07 | 6 of 6 | 0 of 18 | KSSQIVLYESRNKNSVA | SASTRES | QQYHRLPLS | Ctrl |
| 0.54 | 6 of 6 | 0 of 18 | KSSQSVKFESRNKNSVA | DASTRES | QQYHRLPLS | Rand |
| 1.51 | 6 of 6 | 0 of 18 | KLHQSVLYESRHKNSVA | GASKRES | QQYHRLPLS | GP_Gibbs |
| 1.63 | 6 of 6 | 2 of 18 | KIYMMTGFQSRNADSIA | DNSTRGS | QQYHRLPLS | En_HC |
| 1.86 | 5 of 6 | 1 of 18 | KISQMARVGSTHSNSIA | EEATRAK | QQYHRLPLF | En_Gen |
| 0.03 | 6 of 6 | 2 of 18 | KLQLGLGEQKNVYYNVA | NESLKTA | QHYFRLPLT | En_Gibbs |
| 1.15 | 5 of 6 | 0 of 18 | KMSQSVGMESRLKQSVA | WASTRES | QQYHMLPLS | Ctrl |
| 0.12 | 6 of 6 | 1 of 18 | KLSQSHLYESRMKNSVA | NASTRCS | QQYHRLPLS | GP_Gen |
| 0.81 | 6 of 6 | 1 of 18 | KLSMVTGHMSMSKNNVA | EMETREN | QQYDRLPLS | En_Gen |
| 0.86 | 6 of 6 | 0 of 18 | KISMLINMTFEQSNNVA | EMATREE | QQYNRLPLS | En_Gen |
| 0.22 | 6 of 6 | 3 of 18 | MFPQEVMYEQHFKNNVA | QTSTREP | QQYDHLPLS | En_HC |
| 2.79 | 2 of 6 | 1 of 18 | KSSQSVLYESRWKNSVA | AASTRES | GQYHRLPLS | Ctrl |
| 2.11 | 4 of 6 | 1 of 18 | KSSESVLYESRNKNNVW | WSKTRES | QQYHRLPLS | Ctrl |
| 1.14 | 6 of 6 | 1 of 18 | KVGAYPQGVEQDMQNVA | EGSYAST | QQYHRLPLS | En_Gibbs |
| 0.21 | 6 of 6 | 0 of 18 | KLSQSWEYESRNSNSVA | NASTRET | QQYHRLPLA | GP_Gibbs |
| 2.72 | 3 of 6 | 4 of 18 | KLLQEVQGRSQHRNSVA | HNSTRED | QQYDRLPLI | En_HC |
| 1.56 | 5 of 6 | 0 of 18 | TISQVMHYESRNKNSVA | QTSTREE | QDYDRLPLS | En_HC |
| 1.29 | 6 of 6 | 1 of 18 | MISQLMQMGQFAINSVA | QASIRNE | QQYDRLPLD | En_Gen |
| 0.50 | 6 of 6 | 1 of 18 | KLSQSFEYESRNKNSVA | NASTRES | QQYHRLPLS | GP_Gen |
| no signal | 0 of 6 | 1 of 18 | QSSQSVLYESRNKNSVA | WASERES | QQVHRLPLS | Ctrl |
| 0.56 | 6 of 6 | 0 of 18 | NVGQLMDGETRNRNSVA | HQSTRED | QHYHRLPLS | En_HC |
| -0.29 | 6 of 6 | 1 of 18 | TLTQVPGMESHNKNSVA | DLSTRGS | QQYHRLPLS | En_HC |
| 0.30 | 6 of 6 | 4 of 18 | KSLWSVEYESNNKNSVA | HASTRED | QQYHRLPLS | GP_HC |
| 1.76 | 6 of 6 | 0 of 18 | MISQLYNMGQFAINSVA | QASQRNE | QQYDRLPLT | En_Gen |
| 0.76 | 6 of 6 | 0 of 18 | TISGIMNSQSHSKNNVA | EMSTREK | QQYVRLPLA | En_Gen |
| 2.09 | 5 of 6 | 0 of 18 | KLSQSVLYESRLPNSVA | WGSTRES | QQYHRLPLS | Ctrl |

Top 8 of the variants detected in all replicates, tightest first:

| CDR-L1 | CDR-L2 | CDR-L3 | group | log10 Kd (nM), mean | seen in | empty controls |
|---|---|---|---|---|---|---|
| KFSQSVLYESRNKNSVA | GGSTRES | QQYHRLPLS | GP_Gen | -0.57 | 6 of 6 | 0 of 18 |
| KLSQSVLYESRNKNSVA | SASTRES | QQYHRLPLQ | Ctrl | -0.49 | 6 of 6 | 0 of 18 |
| KVSQSQLYESRNKNNVA | EASTRES | QQYHRLPLS | GP_Gen | -0.35 | 6 of 6 | 2 of 18 |
| TLTQVPGMESHNKNSVA | DLSTRGS | QQYHRLPLS | En_HC | -0.29 | 6 of 6 | 1 of 18 |
| KLMQSAWLESRNFNNVA | QASQREL | QQYHRLPLS | GP_Gibbs | -0.07 | 6 of 6 | 1 of 18 |
| KLSQSVPYESRNKNSVA | NASYRES | QQYHRLPLS | GP_Gen | -0.04 | 6 of 6 | 1 of 18 |
| KLQLGLGEQKNVYYNVA | NESLKTA | QHYFRLPLT | En_Gibbs | 0.03 | 6 of 6 | 2 of 18 |
| KLSQSHLYESRMKNSVA | NASTRCS | QQYHRLPLS | GP_Gen | 0.12 | 6 of 6 | 1 of 18 |

Reference: Li et al. 2023, doi:10.1038/s41467-023-39022-2. File: FLAb, binding data.